Columns and labels:
[1] = cited from earlier work
[2] = system: human lung-on-a-Chip; experiment: human lung-on-a-Chip, vascular leakage (IL-2 toxicity); format: cell-based
Description: Using the lung-Chips, various kinds of drugs can be tested to determine what would be the effective treatment.

Q: What does the source list for IL-2: chemotherapeutic cytokine IL-2?
A: toxicity in humans / in vivo [1]: dose-limiting toxicity due to vascular leakage leading to pulmonary edema in humans; blood clot formation ([2]; 10% cyclic strain): accompanied by blood clot formation; increase of the vascular leakage response with physiological breathing motions ([2]; 10% cyclic strain, versus static conditions): more than 3 fold; increase in pulmonary vascular leakage into the air channel of the lung Chip ([2]; static conditions, fluorescent-insulin as marker of vascular permeability): small but significant increase

Source: patent US12187997B2, “Integrated human organ-on-chip microphysiological systems” (President and Fellows of Harvard College, priority 2011, dated 2025)
